Experimental findings from publication PMC10682951, “Structure-function and rational design of a spider toxin Ssp1a at human voltage-gated sodium channel subtypes” (Frontiers in Pharmacology, 2023) are described below.

Protein sequences, listed by entry. Tags and fused reporters are not part of them.
UniProt Q9NY46, whole entry: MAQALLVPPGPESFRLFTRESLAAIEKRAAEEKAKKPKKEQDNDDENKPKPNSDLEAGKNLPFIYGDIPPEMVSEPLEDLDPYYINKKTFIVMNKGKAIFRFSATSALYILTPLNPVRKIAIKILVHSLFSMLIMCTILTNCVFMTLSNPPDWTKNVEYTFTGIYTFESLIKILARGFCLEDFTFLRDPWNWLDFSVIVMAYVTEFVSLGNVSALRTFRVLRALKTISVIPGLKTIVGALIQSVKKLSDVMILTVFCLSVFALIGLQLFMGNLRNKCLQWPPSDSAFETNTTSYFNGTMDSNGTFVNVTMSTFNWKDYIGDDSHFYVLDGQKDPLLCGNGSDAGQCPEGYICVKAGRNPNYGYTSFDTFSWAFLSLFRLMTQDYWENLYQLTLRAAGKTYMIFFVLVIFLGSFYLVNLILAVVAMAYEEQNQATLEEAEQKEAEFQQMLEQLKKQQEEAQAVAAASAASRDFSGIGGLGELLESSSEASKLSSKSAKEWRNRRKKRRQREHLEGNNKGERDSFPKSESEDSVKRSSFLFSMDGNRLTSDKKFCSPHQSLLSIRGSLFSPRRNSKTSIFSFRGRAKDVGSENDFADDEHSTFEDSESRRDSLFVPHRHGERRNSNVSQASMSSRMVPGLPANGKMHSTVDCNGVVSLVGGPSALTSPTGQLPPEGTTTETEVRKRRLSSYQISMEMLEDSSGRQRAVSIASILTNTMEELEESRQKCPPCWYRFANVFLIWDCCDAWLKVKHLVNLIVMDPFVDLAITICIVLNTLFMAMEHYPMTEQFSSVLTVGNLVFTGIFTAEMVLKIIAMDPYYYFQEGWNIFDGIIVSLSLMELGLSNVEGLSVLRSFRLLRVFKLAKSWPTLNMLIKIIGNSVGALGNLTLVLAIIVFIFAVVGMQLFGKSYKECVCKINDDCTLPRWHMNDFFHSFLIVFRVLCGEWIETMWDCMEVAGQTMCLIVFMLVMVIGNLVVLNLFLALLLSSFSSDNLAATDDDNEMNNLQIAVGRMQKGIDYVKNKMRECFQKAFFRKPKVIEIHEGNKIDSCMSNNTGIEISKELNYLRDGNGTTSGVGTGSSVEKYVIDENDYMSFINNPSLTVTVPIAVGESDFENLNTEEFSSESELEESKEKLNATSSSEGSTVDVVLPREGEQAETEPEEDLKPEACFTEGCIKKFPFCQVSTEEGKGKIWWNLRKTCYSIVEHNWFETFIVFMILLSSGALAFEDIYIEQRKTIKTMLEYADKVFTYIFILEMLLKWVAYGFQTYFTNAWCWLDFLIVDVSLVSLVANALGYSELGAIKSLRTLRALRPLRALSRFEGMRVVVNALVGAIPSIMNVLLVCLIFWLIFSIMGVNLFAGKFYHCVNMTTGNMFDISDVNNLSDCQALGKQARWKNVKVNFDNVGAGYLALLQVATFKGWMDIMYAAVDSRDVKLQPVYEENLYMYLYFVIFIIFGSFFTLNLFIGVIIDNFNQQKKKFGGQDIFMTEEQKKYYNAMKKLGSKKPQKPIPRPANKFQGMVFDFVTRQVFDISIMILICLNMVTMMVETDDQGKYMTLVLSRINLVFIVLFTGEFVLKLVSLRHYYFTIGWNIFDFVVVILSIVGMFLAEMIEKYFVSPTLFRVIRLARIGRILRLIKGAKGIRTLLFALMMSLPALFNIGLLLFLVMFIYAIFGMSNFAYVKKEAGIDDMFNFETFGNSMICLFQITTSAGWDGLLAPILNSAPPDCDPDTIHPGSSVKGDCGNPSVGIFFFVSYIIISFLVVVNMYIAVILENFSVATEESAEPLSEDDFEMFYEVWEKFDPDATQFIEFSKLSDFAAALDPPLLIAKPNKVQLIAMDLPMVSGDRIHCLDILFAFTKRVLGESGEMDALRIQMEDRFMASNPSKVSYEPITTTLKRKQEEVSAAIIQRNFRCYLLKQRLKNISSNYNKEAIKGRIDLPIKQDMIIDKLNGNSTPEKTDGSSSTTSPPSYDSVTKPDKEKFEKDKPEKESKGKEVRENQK
UniProt Q62205, whole entry F823G: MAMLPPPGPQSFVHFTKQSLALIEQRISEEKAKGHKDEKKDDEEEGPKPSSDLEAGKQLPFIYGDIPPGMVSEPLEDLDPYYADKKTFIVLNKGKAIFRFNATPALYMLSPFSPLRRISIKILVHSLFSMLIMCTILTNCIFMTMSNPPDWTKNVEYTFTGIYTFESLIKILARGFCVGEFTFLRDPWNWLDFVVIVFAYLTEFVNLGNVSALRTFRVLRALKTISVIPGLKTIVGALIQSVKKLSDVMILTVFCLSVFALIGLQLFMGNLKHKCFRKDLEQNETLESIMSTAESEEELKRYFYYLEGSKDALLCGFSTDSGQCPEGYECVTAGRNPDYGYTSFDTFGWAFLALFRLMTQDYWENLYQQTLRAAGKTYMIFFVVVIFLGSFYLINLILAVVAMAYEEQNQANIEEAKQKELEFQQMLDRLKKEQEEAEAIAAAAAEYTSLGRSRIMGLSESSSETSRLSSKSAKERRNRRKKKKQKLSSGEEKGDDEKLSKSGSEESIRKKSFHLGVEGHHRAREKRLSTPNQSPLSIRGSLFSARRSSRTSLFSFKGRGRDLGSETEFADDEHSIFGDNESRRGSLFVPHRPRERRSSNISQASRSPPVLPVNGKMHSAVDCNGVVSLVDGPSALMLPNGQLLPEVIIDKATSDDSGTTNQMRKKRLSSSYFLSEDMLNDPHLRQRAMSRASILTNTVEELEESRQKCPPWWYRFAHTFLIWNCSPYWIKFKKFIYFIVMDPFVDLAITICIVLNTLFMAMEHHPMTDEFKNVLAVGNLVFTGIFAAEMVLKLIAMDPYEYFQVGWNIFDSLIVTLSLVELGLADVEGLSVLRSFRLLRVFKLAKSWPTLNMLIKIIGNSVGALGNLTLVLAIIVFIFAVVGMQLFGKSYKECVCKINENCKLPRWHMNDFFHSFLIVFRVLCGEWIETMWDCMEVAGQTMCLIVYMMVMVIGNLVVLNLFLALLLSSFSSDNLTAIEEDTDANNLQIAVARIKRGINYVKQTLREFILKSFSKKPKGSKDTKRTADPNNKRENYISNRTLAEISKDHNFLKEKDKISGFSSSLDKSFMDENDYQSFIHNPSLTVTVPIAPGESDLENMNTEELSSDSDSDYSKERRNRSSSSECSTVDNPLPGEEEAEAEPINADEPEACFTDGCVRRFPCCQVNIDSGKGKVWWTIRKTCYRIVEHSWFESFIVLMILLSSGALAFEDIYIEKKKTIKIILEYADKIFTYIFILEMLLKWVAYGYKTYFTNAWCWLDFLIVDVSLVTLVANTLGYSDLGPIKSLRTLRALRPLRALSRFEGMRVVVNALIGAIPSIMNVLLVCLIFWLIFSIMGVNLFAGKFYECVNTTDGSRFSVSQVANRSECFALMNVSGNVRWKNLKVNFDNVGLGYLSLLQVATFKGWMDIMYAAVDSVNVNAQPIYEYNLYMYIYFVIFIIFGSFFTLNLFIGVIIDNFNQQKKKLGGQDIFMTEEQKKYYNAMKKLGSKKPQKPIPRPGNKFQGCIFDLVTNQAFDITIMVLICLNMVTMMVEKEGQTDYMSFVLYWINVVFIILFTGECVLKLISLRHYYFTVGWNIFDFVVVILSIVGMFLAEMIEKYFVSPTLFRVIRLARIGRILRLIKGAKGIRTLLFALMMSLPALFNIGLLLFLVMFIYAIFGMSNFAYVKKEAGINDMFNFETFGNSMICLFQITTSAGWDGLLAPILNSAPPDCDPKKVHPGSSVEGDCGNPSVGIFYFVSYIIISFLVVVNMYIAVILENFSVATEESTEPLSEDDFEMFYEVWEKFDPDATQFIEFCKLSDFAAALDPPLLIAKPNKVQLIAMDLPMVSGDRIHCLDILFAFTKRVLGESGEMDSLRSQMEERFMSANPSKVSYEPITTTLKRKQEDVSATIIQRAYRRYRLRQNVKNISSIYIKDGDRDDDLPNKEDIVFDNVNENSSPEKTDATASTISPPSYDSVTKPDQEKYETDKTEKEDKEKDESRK
UniProt Q62205, whole entry: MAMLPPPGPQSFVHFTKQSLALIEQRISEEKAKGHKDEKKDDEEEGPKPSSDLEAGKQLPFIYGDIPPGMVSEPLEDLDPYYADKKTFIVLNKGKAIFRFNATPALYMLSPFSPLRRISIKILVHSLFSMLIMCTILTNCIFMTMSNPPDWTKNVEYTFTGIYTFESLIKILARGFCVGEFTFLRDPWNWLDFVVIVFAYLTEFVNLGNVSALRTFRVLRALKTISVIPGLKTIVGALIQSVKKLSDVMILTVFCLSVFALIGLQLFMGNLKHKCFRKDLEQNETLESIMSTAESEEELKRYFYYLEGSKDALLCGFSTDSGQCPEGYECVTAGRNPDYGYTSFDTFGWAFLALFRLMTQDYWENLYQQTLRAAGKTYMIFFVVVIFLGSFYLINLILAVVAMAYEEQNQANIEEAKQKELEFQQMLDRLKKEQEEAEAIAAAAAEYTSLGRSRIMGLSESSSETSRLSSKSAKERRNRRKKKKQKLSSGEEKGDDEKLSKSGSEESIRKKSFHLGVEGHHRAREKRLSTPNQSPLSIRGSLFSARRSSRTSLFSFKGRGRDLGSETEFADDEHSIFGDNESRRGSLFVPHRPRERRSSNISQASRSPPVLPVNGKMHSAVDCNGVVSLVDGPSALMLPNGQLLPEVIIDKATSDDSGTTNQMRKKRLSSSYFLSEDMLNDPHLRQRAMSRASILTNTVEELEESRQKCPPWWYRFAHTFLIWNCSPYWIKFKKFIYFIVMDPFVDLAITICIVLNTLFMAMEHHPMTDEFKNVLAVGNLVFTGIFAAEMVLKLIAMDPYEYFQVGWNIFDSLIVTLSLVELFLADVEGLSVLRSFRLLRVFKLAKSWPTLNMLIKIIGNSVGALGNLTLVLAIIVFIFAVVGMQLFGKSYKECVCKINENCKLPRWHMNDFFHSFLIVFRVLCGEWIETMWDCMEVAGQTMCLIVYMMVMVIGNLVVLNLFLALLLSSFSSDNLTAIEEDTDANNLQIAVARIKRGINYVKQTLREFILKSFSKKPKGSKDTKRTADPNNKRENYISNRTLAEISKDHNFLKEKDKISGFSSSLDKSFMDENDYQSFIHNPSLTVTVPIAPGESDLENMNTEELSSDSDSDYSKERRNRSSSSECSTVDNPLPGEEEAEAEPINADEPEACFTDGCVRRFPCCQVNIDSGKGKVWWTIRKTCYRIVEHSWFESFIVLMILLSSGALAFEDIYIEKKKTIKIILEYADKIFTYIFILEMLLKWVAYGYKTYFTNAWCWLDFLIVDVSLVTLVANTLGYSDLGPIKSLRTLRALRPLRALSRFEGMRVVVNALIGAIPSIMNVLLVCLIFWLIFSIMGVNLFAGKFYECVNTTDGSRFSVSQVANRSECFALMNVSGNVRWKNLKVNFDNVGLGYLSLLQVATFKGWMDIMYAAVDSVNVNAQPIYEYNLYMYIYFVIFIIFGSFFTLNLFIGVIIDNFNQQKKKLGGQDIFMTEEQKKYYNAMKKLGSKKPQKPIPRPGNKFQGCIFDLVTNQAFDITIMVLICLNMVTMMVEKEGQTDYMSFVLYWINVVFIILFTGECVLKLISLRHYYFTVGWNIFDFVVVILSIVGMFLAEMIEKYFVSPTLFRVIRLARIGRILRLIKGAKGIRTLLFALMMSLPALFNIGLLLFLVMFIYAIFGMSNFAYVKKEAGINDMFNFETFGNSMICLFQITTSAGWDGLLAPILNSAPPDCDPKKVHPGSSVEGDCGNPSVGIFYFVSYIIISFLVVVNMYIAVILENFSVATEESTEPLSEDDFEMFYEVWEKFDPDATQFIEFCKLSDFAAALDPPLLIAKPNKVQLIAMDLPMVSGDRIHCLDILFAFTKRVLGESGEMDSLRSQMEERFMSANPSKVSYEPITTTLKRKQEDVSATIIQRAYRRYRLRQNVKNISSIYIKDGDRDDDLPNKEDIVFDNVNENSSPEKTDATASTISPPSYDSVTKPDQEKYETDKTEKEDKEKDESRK

Holding throughout (assay type): cell-based
The target of one assay is T1, hNaV1.7 (Homo sapiens, UniProt Q15858).
T1 construct: host or cells: HEK293
Kind of assay: Automated whole-cell patch-clamp (QPatch 16X), hNaV1.7. The settings on record: HEK293 cells expressing hNaV1.7 + β1 subunit, holding −80 mV, step to 0 mV, peptide incubated 2 min, 0.1% BSA, mean, SEM and n (3-9). The procedure: (§1) Human embryonic kidney 293 (HEK293) cells stably expressing recombinant hNaV1.2, hNaV1.3 and hNaV1.7 and the β1 auxiliary subunit (Scottish Biomedical Drug Discovery, Glasgow, UK) were cultured in Minimal Essential medium (MEM) (Sigma-Aldrich, MO, United States) supplemented with 10% v/v FBS-New Zealand origin (Assay Matrix), 2 mM L-glutamine and selection antibiotics as per manufacturer’s recommendation. The HEK293 cells heterologously expressing mNaV1.7 and F813G-mNaV1.7 were generously provided by Prof Irina Vetter and were cultured in Minimal Essential medium (MEM) (Sigma-Aldrich, MO, United States) supplemented with 10% v/v FBS-New Zealand origin (Assay Matrix), 2 mM L-glutamine and hygromycin 100 μg/mL.
(§2) NaV channel currents from HEK293 cells stably expressing NaV subtypes and the β1 auxiliary subunit were recorded using an automated whole-cell patch clamp system QPatch 16X (Sophion Bioscience A/S, Ballerup, Denmark). […]
(§3) The experimental data were analysed using QPatch Assay software v5.6.4 and GraphPad Prism 7.0 using a four-parameter Hill equation [Y = Bottom + (Top—Bottom)/(1 + 10^(Log IC50—X)* Hillslope)] to fit concentration response curves by non-linear regression analysis and Student’s t-test. […]

The next assay deals with T2, hNaV1.2 (Homo sapiens, UniProt Q99250).
T2 construct: host or cells: HEK293
Description: Automated whole-cell patch-clamp (QPatch 16X), hNaV1.2. The settings on record: HEK293 cells expressing hNaV1.2 + β1 subunit, holding −80 mV, step to 0 mV, peptide incubated 2 min, 0.1% BSA, mean, SEM and n (2-7). The procedure:
as §1, §2, §3
Background: In patch-clamp work, channel activity is measured electrically.

The target of a further assay is T3, hNaV1.3 (Homo sapiens, UniProt Q9NY46).
T3 construct: host or cells: HEK293
Kind of assay: Automated whole-cell patch-clamp (QPatch 16X), hNaV1.3. The settings on record: HEK293 cells expressing hNaV1.3 + β1 subunit, holding −80 mV, step to 0 mV, peptide incubated 2 min, 0.1% BSA, mean, SEM and n (3-12). The procedure:
as §1, §2, §3

The target in a further assay is T4, F823G-mNaV1.7 (Mus musculus, UniProt Q62205, F823G).
T4 construct: expressed in transfected cells; host or cells: HEK293 (gift of Prof Irina Vetter)
Description: Automated whole-cell patch-clamp, F823G-mNaV1.7 variant. The procedure:
as §1, §2, §3

Another assay addresses T5, mNaV1.7 WT (Mus musculus, UniProt Q62205).
T5 construct: expressed in transfected cells; host or cells: HEK293 (gift of Prof Irina Vetter)
Kind of assay: Automated whole-cell patch-clamp, wild type mNaV1.7. The settings on record: HEK293 cells expressing mNaV1.7, QPatch, mean ± SEM. The procedure:
as §1, §2, §3

Usually IC50 stands for the concentration that inhibits the measured activity by half.

In the case of `CC(C)C[C@@H]1NC(=O)[C@@H](NC(=O)[C@H](CC(=O)O)NC(=O)CN)CSSC[C@@H]2NC(=O)[C@@H]3CSSC[C@@H](C(=O)N[C@@H](CCCNC(=N)N)C(=O)N[C@@H](Cc4ccc(O)cc4)C(=O)N[C@@H](CC(=O)O)C(=O)N[C@@H](CC(C)C)C(=O)NCC(=O)N[C@@H](CCCCN)C(=O)O)NC(=O)[C@H](Cc4c[nH]c5ccccc45)NC(=O)[C@@H]4CCCN4C(=O)[C@H](Cc4ccc(O)cc4)NC(=O)[C@H](CCCCN)NC(=O)[C@H](Cc4c[nH]c5ccccc45)NC(=O)[C@H](Cc4c[nH]cn4)NC(=O)[C@H](CSSC[C@H](NC(=O)CNC(=O)[C@H](CO)NC(=O)[C@H](Cc4ccccc4)NC(=O)[C@H](Cc4c[nH]c5ccccc45)NC(=O)CNC1=O)C(=O)N[C@@H](CC(=O)O)C(=O)N1CCC[C@H]1C(=O)N[C@@H](CC(N)=O)C(=O)N[C@@H](CC(N)=O)C(=O)N[C@@H](CC(N)=O)C(=O)N[C@@H](CCCCN)C(=O)N3)NC(=O)[C@H](C(C)C)NC(=O)[C@H](Cc1ccc(O)cc1)NC(=O)CNC(=O)[C@H](CCC(=O)O)NC2=O` [rSsp1a-GK], the IC50 is 180 nM at hNaV1.7, 426 nM on hNaV1.2 and 654 nM at hNaV1.3.
Regarding `CC(C)C[C@H](NC(=O)[C@H](CC(C)C)NC(=O)[C@H](CC(C)C)NC(=O)[C@H](CC(=O)O)NC(=O)[C@H](Cc1ccc(O)cc1)NC(=O)[C@H](CCCNC(=N)N)NC(=O)[C@@H]1CSSC[C@@H]2NC(=O)[C@H](CCCCN)NC(=O)[C@H](CC(N)=O)NC(=O)[C@H](CC(N)=O)NC(=O)[C@H](CC(N)=O)NC(=O)[C@@H]3CCCN3C(=O)[C@H](CC(=O)O)NC(=O)[C@@H]3CSSC[C@H](NC(=O)[C@H](C(C)C)NC(=O)[C@H](Cc4ccc(O)cc4)NC(=O)CNC(=O)[C@H](CCC(=O)O)NC(=O)[C@H](CSSC[C@H](NC(=O)[C@H](CC(=O)O)NC(=O)CN)C(=O)N[C@@H](CC(C)C)C(=O)NCC(=O)N[C@@H](Cc4c[nH]c5ccccc45)C(=O)N[C@@H](Cc4ccccc4)C(=O)N[C@@H](CO)C(=O)NCC(=O)N3)NC2=O)C(=O)N[C@@H](Cc2c[nH]cn2)C(=O)N[C@@H](Cc2c[nH]c3ccccc23)C(=O)N[C@@H](CCCCN)C(=O)N[C@@H](Cc2c[nH]cn2)C(=O)N2CCC[C@H]2C(=O)N[C@@H](Cc2c[nH]c3ccccc23)C(=O)N1)C(=O)O` [Y26H-LL], the IC50 at hNaV1.7 was 175 nM; at hNaV1.2, 410 nM; at hNaV1.3, 1630 nM.
Consider `CC(C)C[C@H](NC(=O)[C@H](CC(=O)O)NC(=O)[C@H](Cc1ccc(O)cc1)NC(=O)[C@H](CCCNC(=N)N)NC(=O)[C@@H]1CSSC[C@@H]2NC(=O)[C@H](CCCCN)NC(=O)[C@H](CC(N)=O)NC(=O)[C@H](CC(N)=O)NC(=O)[C@H](CC(N)=O)NC(=O)[C@@H]3CCCN3C(=O)[C@H](CC(=O)O)NC(=O)[C@@H]3CSSC[C@H](NC(=O)[C@H](C(C)C)NC(=O)[C@H](Cc4ccc(O)cc4)NC(=O)CNC(=O)[C@H](CCC(=O)O)NC(=O)[C@H](CSSC[C@H](NC(=O)[C@H](CC(=O)O)NC(=O)CN)C(=O)N[C@@H](CC(C)C)C(=O)NCC(=O)N[C@@H](Cc4c[nH]c5ccccc45)C(=O)N[C@@H](Cc4ccccc4)C(=O)N[C@@H](CO)C(=O)NCC(=O)N3)NC2=O)C(=O)N[C@@H](Cc2c[nH]cn2)C(=O)N[C@@H](Cc2c[nH]c3ccccc23)C(=O)N[C@@H](CCCCN)C(=O)N[C@@H](Cc2ccc(O)cc2)C(=O)N2CCC[C@H]2C(=O)N[C@@H](Cc2c[nH]c3ccccc23)C(=O)N1)C(=O)O` [rSsp1a], for which, at F823G-mNaV1.7 (F823G vs wild type mNaV1.7), the “Decrease of mNaV1.7 sensitivity by F823G mutation” value was approximately 2.5 fold. Besides, the half-inhibitory concentration (IC50) against F823G-mNaV1.7 (HEK293 cells expressing F823G-mNaV1.7 (F823 corresponds to F813 in hNaV1.7), QPatch, mean ± SEM, SEM) stood at 492 ± 50 nM; against mNaV1.7 WT, 208 ± 18 nM.
